Binding of CDR-mutated scFvs to a peptide of the spike HR2 region

Target: peptide PDVDLGDISGINAS, taken from heptad repeat 2 (HR2) of SARS-CoV-2 spike.

The variants keep the light chain, the linker and the frameworks of Ab-14 (scFv order VH, a 15-residue (Gly4Ser)3 linker, VL).
VH: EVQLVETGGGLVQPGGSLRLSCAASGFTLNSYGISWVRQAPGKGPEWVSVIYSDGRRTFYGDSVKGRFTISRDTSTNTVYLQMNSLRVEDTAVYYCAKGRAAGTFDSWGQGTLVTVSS
VL: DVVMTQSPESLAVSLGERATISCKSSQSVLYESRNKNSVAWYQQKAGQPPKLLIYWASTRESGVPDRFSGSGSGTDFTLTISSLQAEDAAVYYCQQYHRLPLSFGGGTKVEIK

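The starting antibody came from a phage panning campaign against this peptide. This is the validation round: designs drawn from the data on random variants, tested in the same kind of assay. Several design methods are mixed in this list. Affinity was read by AlphaSeq, a pooled yeast mating assay with surface-displayed partners. The frequency of each diploid, read from paired DNA barcodes, reflects how well the two displayed proteins bind. Read counts were normalised to the haploid input and turned into Kd by a linear fit to BCL2-family pairs of known affinity, for each replicate. There are six technical replicates.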

Variants are written as CDR1, CDR2 and CDR3 of the heavy chain (limits as in the source). Parent: GFTLNSYGIS, VIYSDGRRTFYGDSVK, GRAAGTFDS.
The read-out is the apparent dissociation constant on a log10 scale (nM): the lower, the stronger.
The mean shown is taken over the replicates in which the pair was detected.
A pair that was not seen in any replicate is written "not detected"; this usually means weak binding, but a binder can also be missed.
The authors averaged sequences with at least three values out of six and counted those with two or fewer as poor binders.
Values of this round are not directly comparable with the first-round values of the same sequences.
Nonspecific signal, from three strains lacking the peptide, appeared in 1% of pairings of all heavy chain designs, centred on 2.08 (5% of these signals below 0.84); values are not corrected for it.

| CDR-H1 | CDR-H2 | CDR-H3 | log10 Kd (nM), mean | detected |
|---|---|---|---|---|
| GFDLNEYGIS | VIYADGRRTFYADDVK | GNVAGTFDV | -0.48 | 6 of 6 |
| GFDLAEYGIS | VIYADGMRVAYNQNVK | GTGGGSFDF | not detected | 0 of 6 |
| GFSLDEYGIS | VIYADGARAFYTNKVK | GVEVGDLIT | not detected | 0 of 6 |
| GESLESYGIS | VIYADGMRTSYTNSVK | GVWAGTFDL | 2.32 | 5 of 6 |
| KFTLNEYGIS | VIYSDGRRTFYTDSVK | GRCAGTFDS | 1.43 | 4 of 6 |
| GFTLDSYGIS | VIYSDGRRTFYGDSVK | GRAAGTFSV | 1.20 | 1 of 6 |
| GFDLDEYGIS | VIYADGKRTAYVDSVK | GEVAGTFDL | -0.08 | 6 of 6 |
| GFDLNEYGIS | VIYADGRRTFYADSVK | GQAAGTFDI | 0.27 | 6 of 6 |
| GFDLNEYGIS | VIYADGSRTFYSDSVK | GNQAGTFDA | -0.73 | 6 of 6 |
| GFTLNEYGIE | VIYSDGRRTFYGDSVK | GRTAVTFDQ | not detected | 0 of 6 |
| GFDLDEYGIS | VIYADGKRTVYADSVK | GNVAGTFDL | 0.51 | 6 of 6 |
| GFDLNEYGIS | VIYADGRRTFYADSVK | GEYAGTFDI | -0.19 | 6 of 6 |
| GFTLDSYGIS | VIYSDGRRTFYKDSVK | GKAAGTFDS | 0.72 | 6 of 6 |
| GFDLNEYGIS | VIYADGRRTFYADSVK | GEVAGTFDF | -0.47 | 6 of 6 |
| GFDLDEYGIS | VIYADGMRTAYADSVK | GANAGTFDI | 0.10 | 6 of 6 |
| GFSLNSYGIS | VIYSDGRRTFYGDSVK | GKAAGTFDV | 1.72 | 1 of 6 |
| FFKLEDFGIS | VIYADGRRTAYVDDVK | GENAGTFQV | 1.14 | 6 of 6 |
| YFDLNSYGIS | VIYSDGRRTFYGDSVK | GRQAGTFDS | 2.26 | 1 of 6 |
| GFTLNSYGIS | VIYSDGKRVFYGDSVK | GRGAGTFDS | 0.01 | 1 of 6 |
| GFSLNSYGIS | VIYSDGRRTFYGDAVK | GRQAGTFDS | 1.17 | 6 of 6 |
| GFTLNSYGIS | VIYADGLRTFYIDSVK | GRAAVTFDS | not detected | 0 of 6 |
| GFSLNSYGIS | VIYSDGRRTFYGDSVK | GHAAGTFDL | 0.81 | 6 of 6 |
| GFDLDEYGIS | VIYADGSRTAYADDVK | GNVAGTFDL | -0.26 | 6 of 6 |
| KFSLNSYGIS | VIYSDGRRTFYADSVK | GEAAGTFDS | 0.75 | 6 of 6 |
| GFDINEYGIS | VIYADGKRMAYAWKVK | GKEAGTLIL | not detected | 0 of 6 |
| GFTLKSYGIS | VIYADGRRTFYGDSVK | GQAAGTFDS | 0.71 | 6 of 6 |
| GFDLDEYGIS | VIYADGQRTAYSDSVK | GEVAGTFDI | -0.33 | 6 of 6 |
| GFDLDEYGIS | VIYADGRRTFYADSVK | GEIAGTFLV | -0.35 | 6 of 6 |
| GFHLNSYGIS | VIYSDGRRTFYQDSVK | GQEAGTFDS | -0.66 | 5 of 6 |
| GFDLNEYGIS | VIYADGRRTFYSDSVK | GQIAGTFTL | -0.28 | 6 of 6 |
| KFSLNSYGIS | VIYSDGRRTFYIDSVK | GRMAGTFDS | not detected | 0 of 6 |
| GFTLCQYGIS | VIYSDGRRTFYSDSHK | GRAAGFFDS | not detected | 0 of 6 |
| GFTLNSYGIS | VIYSDGRRTFYGDSVK | GRAADRFDS | 1.04 | 2 of 6 |
| GFQLNEYGIS | VIYADGLRTGYAQNVK | GYHGFGLNQ | not detected | 0 of 6 |
| GFTLESYGIS | VIYSDGRRTFYGDSVK | GREAGTFDT | -0.10 | 6 of 6 |
| GFDVDKYGIS | VIYADGARKAYQNQFK | GGQAGTFVN | 2.90 | 2 of 6 |
| GFDLNSYGIS | VIYSDGRRTFYGDSVK | GEAAGIFDS | not detected | 0 of 6 |

Second part, the sequence after the result:

| log10 Kd (nM), mean | detected | CDR-H1 | CDR-H2 | CDR-H3 |
|---|---|---|---|---|
| -0.14 | 6 of 6 | GFDLNNYGIS | VIYSDGRRTFYGDSVK | GRTAGTFDT |
| 1.49 | 6 of 6 | GFQLNSYGIS | VIYSDGRRTFYVDSVK | GKTAGTFDT |
| not detected | 0 of 6 | GFTLNDYGIS | VIYSDGRRTAYLDSVK | GEAAQTFSQ |
| 0.94 | 1 of 6 | KFSLNEYGIS | VIYSDGRRTFYGDSVK | GRAPGTFDS |
| -0.15 | 6 of 6 | GFDLDEYGIS | VIYADGRRTFYQDSVK | GTNAGTFDQ |
| 0.00 | 6 of 6 | GFDLNEYGIS | VIYADGMRTAYVDSVK | GETAGTFDL |
| not detected | 0 of 6 | GFQLDEYGIS | VIYADGKRTAYAQNFK | GNGLVLQEG |
| 0.28 | 6 of 6 | GFSLNSYGIS | VIYSDGRRTFYTDSVK | GRQAGTFDS |
| -0.92 | 6 of 6 | GFDLNEYGIS | VIYADGVRTAYVDSVK | GETAGTFDV |
| not detected | 0 of 6 | GNDLQEYGIS | VIYADGQRVNAVSQVK | GKQAGTFNL |
| 1.27 | 6 of 6 | GFYLNEYGIS | VIYSDGRRTMYGDSVK | GRTAGTFDS |
| not detected | 0 of 6 | GFTLNEYGIS | VIYSDGRRTFYGDSVK | GRAALTFDE |
| 0.90 | 1 of 6 | GFNLDEYGIS | VIYADGKRSMYADKVK | GVDGDFMMD |
| not detected | 0 of 6 | GNTLDEYGIS | VIYADGSRMAYADKFK | GMDVGTFDQ |
| not detected | 0 of 6 | GFTLNQYGIS | VIYSDGWRTFYIDSVK | GRAAGTFTS |
| -0.01 | 6 of 6 | GFQLNEYGIS | VIYSDGRRTFYGDSVK | GRAAGTFDT |
| -0.47 | 6 of 6 | GFDLNEYGIS | VIYADGQRTYYADDVK | GENAGTFDV |
| 0.40 | 6 of 6 | GFTLESYGIS | VIYSDGRRTFYADDVK | GRAAGTFDT |
| -0.29 | 6 of 6 | GFDLNEYGIS | VIYADGRRTFYTDSVK | GNVAGTFLV |
| not detected | 0 of 6 | GFTLNSYGIS | VIYSDGRRTFYHDSVK | GRNQGTFDS |
| 0.33 | 6 of 6 | GFELNSYGIS | VIYSDGRRTAYGDNVK | GRNAGTFDS |
| -0.26 | 6 of 6 | GFDLEEYGIS | VIYADGRRTAYADSVK | GNVAGTFDL |
| -0.14 | 6 of 6 | GFELNSYGIS | VIYSDGRRTFYADSVK | GKAAGTFDA |
| 0.64 | 6 of 6 | GFDLNSYGIS | VIYSDGRRTFYLDSVK | GRAAGTFDS |
| 3.39 | 1 of 6 | GFTLESYGIS | VIYSDGRRTAYNDSVK | GKAACHFDS |
| -0.17 | 6 of 6 | GFSLNSYGIS | VIYSDGRRTFYGDSVK | GREAGTFDQ |
| not detected | 0 of 6 | GFGLDEYGIS | VIYADGRRTFYADSVK | GENAGTFFM |
| 2.53 | 5 of 6 | GFELNDYGIS | VIYSDGRRTYYIDSVK | GRAAGTFDS |
| 0.72 | 6 of 6 | GFHLNSYGIS | VIYSDGRRTFYQDSVK | GQTAGTFDS |
| 1.73 | 5 of 6 | GFHLNSYGIS | VIYSDGRRTFYQDSVK | GWTAGTFDS |
| not detected | 0 of 6 | GFGLDEYGIS | VIYADGSRTEYVQSVK | GDTSVIKFV |
| 2.11 | 4 of 6 | GFTLNSYGIS | VIYSDGSRTAYGDSVK | GRAAGTFDS |
| -0.11 | 6 of 6 | GFTLNSYGIS | VIYSDGRRTGYIDSVK | GRAAGTFDS |
| not detected | 0 of 6 | GFTLNLYGIS | VHYSDGCRTFYSDSVK | GRAAGFFDS |
| 1.10 | 6 of 6 | MFDLNSYGIS | VIYSDGRRTFYGDSVK | GKEAGTFDS |
| not detected | 0 of 6 | GFTLNSYGIS | VIYADGRRTFYGDSVK | GRAAGTIDS |
| 0.79 | 2 of 6 | GFDLNEYGIS | VIYSDGHRTFYGDSVK | GRTAGTFDS |
| 1.24 | 1 of 6 | GFVLNSYGIS | VIYSDGRRTFYGDSVK | GKAAGTFDT |

From the AlphaSeq antibody data of Li et al. 2023 (doi:10.1038/s41467-023-39022-2), copy in the FLAb collection.